# Test results from BindingDB's records for PubMed 11160626 (Japan Tobacco, 2001).
# Sequences of proteins named here, by UniProt entry; tags and fusion partners are left off. A change or cut given only in a name is not applied to a line headed by its entry.
# UniProt P20272, whole entry: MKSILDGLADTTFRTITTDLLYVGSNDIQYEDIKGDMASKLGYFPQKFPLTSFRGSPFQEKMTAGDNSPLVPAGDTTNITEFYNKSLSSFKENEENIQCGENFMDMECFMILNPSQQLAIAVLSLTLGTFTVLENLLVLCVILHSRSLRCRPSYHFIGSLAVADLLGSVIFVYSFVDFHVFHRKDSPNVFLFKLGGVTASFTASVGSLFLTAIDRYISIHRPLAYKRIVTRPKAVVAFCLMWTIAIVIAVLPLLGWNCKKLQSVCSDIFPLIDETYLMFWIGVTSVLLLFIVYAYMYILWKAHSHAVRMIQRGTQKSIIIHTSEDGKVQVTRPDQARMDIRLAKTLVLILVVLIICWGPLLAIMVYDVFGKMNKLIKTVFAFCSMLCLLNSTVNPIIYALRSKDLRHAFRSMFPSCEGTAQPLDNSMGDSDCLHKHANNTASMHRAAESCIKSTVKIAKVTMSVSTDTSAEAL
# UniProt P47936: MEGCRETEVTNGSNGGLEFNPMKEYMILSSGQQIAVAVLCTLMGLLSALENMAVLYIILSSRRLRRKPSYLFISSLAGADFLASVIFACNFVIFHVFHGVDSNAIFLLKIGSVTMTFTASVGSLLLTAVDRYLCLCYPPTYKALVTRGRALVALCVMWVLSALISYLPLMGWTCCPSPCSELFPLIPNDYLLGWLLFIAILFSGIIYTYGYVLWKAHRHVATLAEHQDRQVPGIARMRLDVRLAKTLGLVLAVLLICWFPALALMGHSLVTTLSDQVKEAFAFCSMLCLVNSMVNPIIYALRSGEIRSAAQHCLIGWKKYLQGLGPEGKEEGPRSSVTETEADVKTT
# UniProt P21554, whole entry: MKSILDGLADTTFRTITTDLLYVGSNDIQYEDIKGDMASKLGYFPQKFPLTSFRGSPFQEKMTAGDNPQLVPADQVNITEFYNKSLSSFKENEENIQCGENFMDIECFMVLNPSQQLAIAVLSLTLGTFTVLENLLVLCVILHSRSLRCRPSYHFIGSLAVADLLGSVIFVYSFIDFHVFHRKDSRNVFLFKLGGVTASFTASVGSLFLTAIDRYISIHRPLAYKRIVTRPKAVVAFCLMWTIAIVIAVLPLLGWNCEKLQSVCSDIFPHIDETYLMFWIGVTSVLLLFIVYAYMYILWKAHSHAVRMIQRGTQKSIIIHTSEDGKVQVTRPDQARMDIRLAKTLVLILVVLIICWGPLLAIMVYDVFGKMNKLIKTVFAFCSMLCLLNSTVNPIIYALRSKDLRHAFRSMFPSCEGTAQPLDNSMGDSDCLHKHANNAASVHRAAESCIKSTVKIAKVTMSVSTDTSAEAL
# Key:
# [1] = target: Cannabinoid receptor 1 (Rattus norvegicus, UniProt P20272)
# [2] = target: T1, Cannabinoid receptor 2 (Rattus norvegicus, UniProt Q9QZN9)
# T1 sequence (Q9QZN9 whole entry): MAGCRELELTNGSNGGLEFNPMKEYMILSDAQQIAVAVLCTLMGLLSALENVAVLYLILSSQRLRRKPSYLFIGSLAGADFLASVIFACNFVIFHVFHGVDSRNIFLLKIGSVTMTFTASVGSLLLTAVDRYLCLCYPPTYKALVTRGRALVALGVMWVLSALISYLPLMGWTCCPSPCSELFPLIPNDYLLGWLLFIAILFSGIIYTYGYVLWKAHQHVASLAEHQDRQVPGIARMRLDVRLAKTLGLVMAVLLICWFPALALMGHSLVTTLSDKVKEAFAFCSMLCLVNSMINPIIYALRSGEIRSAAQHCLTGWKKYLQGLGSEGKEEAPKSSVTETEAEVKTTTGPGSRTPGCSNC
# [3] = target: Cannabinoid receptor 2 (Mus musculus, UniProt P47936)
# [4] = target: Cannabinoid receptor 1 (Homo sapiens, UniProt P21554)
smiles,measurement,setting,value
"Cc1ccc(Cn2nc(C(=O)NC3C(C)(C)C4CC[C@@]3(C)C4)cc2-c2ccc(Cl)c(C)c2)cc1 (some centres undefined) [N-(1,3,3-trimethylbicyclo(2.2.1)heptan-2-yl)-5-(4-chloro-3-methylphenyl)-1-(4-methylbenzyl)pyrazole-3-carboxamide]",Ki,[1],27.6 nM
same,Ki,[2],0.24 nM
same,Ki,[3],0.04 nM
same,Ki,[4],50.3 nM
